The values that follow come from ChEMBL document CHEMBL2321678, “Incorporation of non-natural amino acids improves cell permeability and potency of specific inhibitors of proteasome trypsin-like sites” (J Med Chem, 2013).

By UniProt entry, the sequences of proteins in these tests, tags left out. Where a name states a change or a piece, a line headed by the entry shows the natural chain unless it says otherwise.
UniProt P28074: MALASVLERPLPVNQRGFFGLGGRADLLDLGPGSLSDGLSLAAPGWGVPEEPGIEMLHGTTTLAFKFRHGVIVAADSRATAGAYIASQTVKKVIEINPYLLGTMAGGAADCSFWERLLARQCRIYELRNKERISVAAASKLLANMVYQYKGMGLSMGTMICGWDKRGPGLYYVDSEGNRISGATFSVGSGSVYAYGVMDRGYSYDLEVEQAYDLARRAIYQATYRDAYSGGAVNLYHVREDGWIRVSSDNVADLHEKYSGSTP

A value given as a limit tells only on which side of the number the result lay.

Experiment [1] has as its target T1, Proteasome Macropain subunit MB1 (Homo sapiens, UniProt P28074). Put plainly: Inhibition of chymotrypsin-like activity of proteasome in human NCI-H929 cells after 6 hrs by proteasomeGlo assay. Type of experiment: cell-based. In outline: (§1)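 Cells then pelleted, resuspended in PBS and mixed with site-specific luminogenic substrates in lysis/assay buffer. Mixing 3 min, then 17 min in the dark before luminescence, triplicate per substrate/point. Activity as % of mock; IC50 from a four-parameter nonlinear fit.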

Experiment [2] addresses T1, Proteasome Macropain subunit MB1. Kind of experiment: Inhibition of chymotrypsin-like activity of proteasome beta 5 subunit in HEK-293T cell lysates using BODIPY-BODIPY-TMR-epoxomicin as probe after 1 hr by SDS-PAGE analysis. A digest of the protocol: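 Then 1 h at 37 °C with BODIPY-TMR-Ahx3L3-vs or BODIPY-TMR-epoxomicin (0.5 µM). Three independent experiments; IC50 fitted.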

The target is the same in experiment [3]. Put plainly: Competitive inhibition of chymotrypsin-like activity of proteasome beta 5 subunit in HEK293T cells after 4 hrs by SDS-PAGE analysis in presence of BODIPY-BODIPY-TMR-epoxomicin. Type of experiment: cell-based, HEK-293T.
Experiment [4] can be described thus: Inhibition of chymotrypsin-like activity of rabbit 26s proteasome beta 5 subunit assessed as hydrolysis of Suc-LLVY-amc fluorogenic substrate preincubated for 30 mins followed by substrate addition measured for 30 mins by fluorescence plate reader analysis. Details: species or system Oryctolagus cuniculus. In outline:
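Purified rabbit-muscle 26S proteasome (final 3 µg/mL) preincubated 30 min with a range of inhibitor concentrations. Slopes expressed as % of mock; IC50 by four-parameter least-squares fit.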

Experiment [5] addresses T1, Proteasome Macropain subunit MB1. Put plainly: Inhibition of chymotrypsin-like activity of proteasome in human RPMI-8226 cells after 6 hrs by proteasomeGlo assay. Type of experiment: cell-based. In outline: as §1

By IC50 is commonly meant the concentration that inhibits the measured activity by half. Regarding `CC(C)C[C@H](NC(=O)[C@H](Cc1ccncc1)NC(=O)[C@H](Cc1ccccc1)N=[N+]=[N-])C(=O)N[C@H](/C=C/S(C)(=O)=O)Cc1ccc(CN)cc1`, the IC50 was 10.5 µM in experiment [1], 5.5 µM in experiment [2], > 50 µM in experiment [3] and 1.05 µM in experiment [4].

Turning to `CC(C)C[C@H](NC(=O)[C@H](Cc1ccc(N)cc1)NC(=O)[C@H](Cc1ccccc1)N=[N+]=[N-])C(=O)N[C@H](/C=C/S(C)(=O)=O)Cc1ccc(CN)cc1`, the IC50 came to 7.2 µM in experiment [5], 3.6 µM in experiment [1] and 2.8 µM in experiment [2].

In the case of `Cc1c(O)cccc1C(=O)N[C@H](C(=O)N[C@@H](CO)C(=O)N[C@H](/C=C/S(C)(=O)=O)Cc1ccc(CN)cc1)C(C)C`, the values for the IC50 in experiment [5] and in experiment [1] were 15 µM and 13 µM, respectively.
